## Ab-95 light chain CDR variants: yeast mating affinities

Target: peptide PDVDLGDISGINAS, taken from heptad repeat 2 (HR2) of SARS-CoV-2 spike.

Ab-95 is the parent antibody, in scFv form: VH, then three GGGGS repeats, then VL. The heavy chain is unchanged in all variants.
VH: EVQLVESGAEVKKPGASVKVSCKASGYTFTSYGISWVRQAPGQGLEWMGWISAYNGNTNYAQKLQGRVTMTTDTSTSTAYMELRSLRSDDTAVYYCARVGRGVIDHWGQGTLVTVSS
VL: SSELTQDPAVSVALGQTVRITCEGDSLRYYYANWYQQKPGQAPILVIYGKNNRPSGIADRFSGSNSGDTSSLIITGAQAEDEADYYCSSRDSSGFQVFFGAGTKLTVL

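AAYL52 was designed without a model: most single CDR substitutions and a random sample of double and triple ones. In AlphaSeq, yeast of one mating type display the scFv and yeast of the other type display the target. Pairs that bind mate more often; barcode pairs of the diploids are counted by sequencing. The ratio of observed to expected reads was calibrated, replicate by replicate, on BCL2-family standards whose Kd was known from biolayer interferometry. Each pool was mated in three replicate cultures.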

Changes read parent residue, position, new residue, counted from the first residue of the VL shown.
Every variant below is changed at G24 of the VL (sequential numbering).
The Kd shown is the geometric mean over detected replicates; a lower Kd is a better binder.
"nd" means that the variant was in the library but no mating with the target was seen in any replicate; the authors take this as a sign of poor binding, and no number exists.
For reference, the parent read 200 nM as the reference entry and 180 nM as a member of this library.
Empty control strains, which show no peptide, gave a signal in 28% of pairings with library AAYL52; the median was 8.2 µM and 95% of these signals were weaker than 800 nM. No background was subtracted.

For G24W K50N F95P, the assay gave 400 µM (1 of 3 replicates).
For G24H G49Y S89I, the assay gave nd (0 of 3 replicates).
For G24S N52I S89V, the assay gave 110 nM (3 of 3 replicates).
For G24M, the assay gave 12 µM (3 of 3 replicates).
For G24T S88Y Q96M, the assay gave 12 µM (2 of 3 replicates).
For G24E K50E, the assay gave 130 µM (1 of 3 replicates).
For G24P A32S V97W, the assay gave 8.3 µM (3 of 3 replicates).
For G24K A32G S92M, the assay gave 1.6 µM (2 of 3 replicates).
For E23K G24W D91Y, the assay gave 2.0 µM (2 of 3 replicates).
For G24P S55F S92N, the assay gave 24 µM (2 of 3 replicates).
For G24N S89E G94A, the assay gave 16 µM (2 of 3 replicates).
For G24D G49K P54I, the assay gave 14 µM (2 of 3 replicates).
For G24W L27M S89P, the assay gave 370 nM (1 of 3 replicates).
For G24S Y29S S88T, the assay gave 770 nM (2 of 3 replicates).
For G24F S92G, the assay gave nd (0 of 3 replicates).
For E23D G24S N51M, the assay gave nd (0 of 3 replicates).
For G24M Y31L S55P, the assay gave 2.3 µM (1 of 3 replicates).
For G24F A32G G94C, the assay gave 55 µM (1 of 3 replicates).
For G24R S89H, the assay gave 1.3 µM (1 of 3 replicates).
For E23F G24A, the assay gave 6.1 µM (3 of 3 replicates).
For G24W L27H N51P, the assay gave 42 µM (3 of 3 replicates).
For G24Y N51I R53Q, the assay gave nd (0 of 3 replicates).
For G24K K50H V97S, the assay gave 11 µM (3 of 3 replicates).
For G24H G49S F95A, the assay gave 3.6 µM (3 of 3 replicates).
For G24I N51V S55C, the assay gave nd (0 of 3 replicates).
For G24S A32Y P54K, the assay gave 15 µM (3 of 3 replicates).
For G24V R28K Q96F, the assay gave 7.1 µM (2 of 3 replicates).
For G24K D25H D91V, the assay gave nd (0 of 3 replicates).
For G24E S88C Q96H, the assay gave 3.2 µM (2 of 3 replicates).
For G24T P54I, the assay gave nd (0 of 3 replicates).
For G24F R53P S92I, the assay gave 12 µM (2 of 3 replicates).
For G24W N33K K50C, the assay gave 74 µM (1 of 3 replicates).

The first 2 variants above that were never detected:

changes,Kd (apparent),detected
G24H G49Y S89I,nd,0 of 3
G24F S92G,nd,0 of 3

Data: MIT Lincoln Laboratory AlphaSeq set, Engelhart et al. 2022, doi:10.1038/s41597-022-01779-4, as distributed in FLAb.